{"source": "patent US20070167377A1", "about": "“Inhibitors of glycinamide ribonucleotide transformylase” (priority 2002, published 2007)", "biological_target": "T1, recombinant human GAR Tfase (rhGAR Tfase) (Homo sapiens, UniProt P22102)", "T1 construct": "includes residues 808-1010 from the human trifunctional enzyme (purD-purM-purN); hexa-histidine (C); made in house; host or cells: E. coli BL21 (DE3) Gold, pet22b vector", "T1 sequence (P22102 808-1010)": "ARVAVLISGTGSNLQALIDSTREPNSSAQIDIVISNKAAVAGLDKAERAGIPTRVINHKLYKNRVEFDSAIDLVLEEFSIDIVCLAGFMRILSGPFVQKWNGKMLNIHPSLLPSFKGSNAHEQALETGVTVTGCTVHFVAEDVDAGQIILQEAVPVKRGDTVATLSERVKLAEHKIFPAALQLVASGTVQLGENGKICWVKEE", "test": "Recombinant human GAR Tfase inhibition", "format": "biochemical"}
{"smiles": "Nc1nc(N)c(CCCC(C(=O)C(F)(F)F)c2ccc(C(=O)N[C@@H](CCC(=O)O)C(=O)O)cc2)c(=O)[nH]1", "note": "(stereo partly drawn) [Compound 101, N-{4-[4-(2,4-Diamino-6-oxo-1,6-dihydropyrimidin-5-yl)-1-(2,2,2-trifluoroacetyl)butyl]benzoyl}-L-glutamic acid]", "values": [{"measurement": "Ki", "value": 0.015, "unit": "µM"}]}
